Values of other authors as cited in patent US20110171714A1, “CRYSTAL STRUCTURE OF TAK1-TAB1” (VERTEX PHARMACEUTICALS INCORPORATED, priority 2005, published 2011).

Target: T1, TAK1 (Homo sapiens, UniProt O43318)
T1 sequence (O43318 1-606): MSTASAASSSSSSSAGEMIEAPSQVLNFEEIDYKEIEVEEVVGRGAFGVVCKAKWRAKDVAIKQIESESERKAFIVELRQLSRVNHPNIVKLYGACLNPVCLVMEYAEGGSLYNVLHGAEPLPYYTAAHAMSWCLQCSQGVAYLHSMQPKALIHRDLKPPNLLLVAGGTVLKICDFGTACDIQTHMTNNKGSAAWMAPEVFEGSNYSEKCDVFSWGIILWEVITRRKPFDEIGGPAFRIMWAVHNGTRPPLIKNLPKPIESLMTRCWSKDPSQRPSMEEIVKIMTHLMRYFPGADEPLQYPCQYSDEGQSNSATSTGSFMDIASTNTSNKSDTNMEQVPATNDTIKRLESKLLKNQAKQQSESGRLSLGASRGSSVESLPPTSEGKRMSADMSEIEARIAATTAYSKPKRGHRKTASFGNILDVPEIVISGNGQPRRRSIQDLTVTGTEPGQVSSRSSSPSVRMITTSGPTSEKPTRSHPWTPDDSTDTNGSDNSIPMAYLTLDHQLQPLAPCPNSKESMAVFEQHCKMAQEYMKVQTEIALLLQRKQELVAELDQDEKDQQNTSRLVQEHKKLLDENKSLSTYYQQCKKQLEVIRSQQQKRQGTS
T1 sequence (Q15750 1-504 partner): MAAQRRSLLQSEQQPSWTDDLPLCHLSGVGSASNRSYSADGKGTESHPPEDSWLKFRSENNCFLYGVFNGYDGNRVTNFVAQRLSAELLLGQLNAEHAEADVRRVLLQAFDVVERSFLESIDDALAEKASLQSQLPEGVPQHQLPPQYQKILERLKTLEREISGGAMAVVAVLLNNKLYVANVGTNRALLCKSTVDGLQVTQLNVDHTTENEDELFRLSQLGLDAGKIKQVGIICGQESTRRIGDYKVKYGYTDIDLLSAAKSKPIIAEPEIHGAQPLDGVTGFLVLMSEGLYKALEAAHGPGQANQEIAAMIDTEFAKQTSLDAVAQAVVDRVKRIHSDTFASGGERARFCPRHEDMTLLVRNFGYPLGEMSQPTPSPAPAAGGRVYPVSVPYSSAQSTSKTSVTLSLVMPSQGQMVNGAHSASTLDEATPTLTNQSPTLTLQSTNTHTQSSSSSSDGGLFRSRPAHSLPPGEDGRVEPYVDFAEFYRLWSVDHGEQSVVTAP
Conditions: natural inhibitor of TAK1; cited from earlier work

For `COc1cc(O)c2c(c1)/C=C/C[C@H](O)[C@H](O)C(=O)/C=C\C[C@H](C)OC2=O` [5Z-7-oxozeaenol], the IC50 is listed as 8 nM.
